Patent US9962444B2, “Pharmacokinetically extended action topical hair growth formulation, and administration method” (priority 2016, dated 2018)

Assay: in vitro percutaneous absorption of minoxidil, Franz Finite Dose Model
Settings: ex vivo human scalp skin, 48 hours

Compound: Nc1cc(N2CCCCC2)nc(N)[n+]1[O-] [minoxidil]
- percutaneous absorption (result in words): did absorb into and penetrate through ex vivo human scalp skin
